Key:
Pin1 = Pin1 (Homo sapiens, UniProt Q13526); assay: Evaluation of Pin1 enzyme inhibitory activity (Sensolyte Green Pin1 assay kit); conditions: read-out: Pin 1 inhibition; concentration at which the Pin1 enzyme activity is inhibited; 2 hours at room temperature, fluorescence 490 nm/520 nm
Description: In order to evaluate the Pin1 enzyme inhibitory activity of the compound represented by formula 1 according to the present invention, the following experiment was performed, and the results are shown in Table 2 below.
The enzyme activity of Pin1 protein was measured using a sensolyte Green Pin1 assay kit of Anaspec. The substrate was diluted in a buffer at a ratio of 1:100 to prepare a concentration of 1 μM, and the protein was diluted in a buffer at a ratio of 1:20 to prepare a concentration of 50 μg/ml. In addition, a developing solution was prepared by diluting thereof in a buffer at a ratio of 1:100.
The compound prepared in each example was diluted with DMSO and prepared at a concentration of 100 μM, 10 μM, 1 μM or 0.1 μM using a buffer. After sequentially adding 10 μl of the compound prepared in each Example diluted to four concentrations according to the above method, 10 μl of Pin1 protein, and 30 μl of the developing solution to each well of a black 96-well plate, […]. Finally, 50 μl of the substrate was added to each well of the plate, and the enzyme reaction was carried out after shaking the plate for 10 seconds.
Then, the plate was incubated for 2 hours at room temperature in an environment without light, and the fluorescence values at 490 nm/520 nm wavelength were measured using a device of Synergy Neo (Tecan). […]

Chains of the proteins cited; added tags and fusions are not shown.
UniProt Q13526, whole entry: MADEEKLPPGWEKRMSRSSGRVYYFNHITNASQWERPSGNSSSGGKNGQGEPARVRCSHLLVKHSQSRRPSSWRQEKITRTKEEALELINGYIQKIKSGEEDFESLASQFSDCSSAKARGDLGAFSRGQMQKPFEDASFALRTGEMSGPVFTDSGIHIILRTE

[1] = test system: A2780 cells (ovarian cancer cells); assay: Cell viability of A2780 cells (Cell-titer Glo); conditions: read-out: A2780, culture for 3 days
Description: (§1) In order to confirm the inhibitory effect of the compound represented by formula 1 according to the present invention on the growth of MCF7, MCF7-SP, A2780 or A2780-SP cells, the following experiment was performed, and the results are shown in Tables 4 and 5 below.
In addition, A2780 cells (ovarian cancer cells) were plated in a 96-well plate at the density of 3000 viable cells per well, and cultured in RPMI-1640 medium supplemented with 10% FBS and 1% penicillin/streptomycin.
(§2) On the next day of culture, the cells were treated with the compound of Examples 57, and 69 to 144, followed by culture for 3 days. Cell viability was evaluated by Cell-titer Glo (Promega, WC, USA), and luciferase activity was detected using a Tecan plate reader (Biocompare, USA).

[2] = test system: A2780-SP cells (ovarian cancer stem cells); assay: Sphere cell viability of A2780-SP cells (Cell-titer Glo); conditions: read-out: A2780-SP, culture for 8 days
Description: as §1
On the other hand, A2780-SP cells (ovarian cancer stem cells) were plated in an Ultra-Low Attachment round bottom 96-well plate (corning) at the density of 1,500 viable cells per well, and cultured in cancer stem cell medium. The cancer stem cell medium is composed of the neurobasal medium supplemented with 20 ng/ml of bFGF, 10 ng/ml of EGF, […] of amphotericin B, HEPES, Glutamax and B27.
as §2, with “for 8” for “for 3”, “days. The medium containing the compound was added thereto once again on the 4th day. Sphere cell” for “days. Cell”

Q: How did the IC50 (Pin1) turn out when `O=S(=O)(NCCCc1c[nH]c2ccc(Cl)cc12)c1ccc(Nc2cccc(N3CCNCC3)c2)cc1` was run?
A: Its IC50 is under 1000 nM.

Q: What about the IC50 [1] of the same molecule?
A: Its IC50 is 1000 to 10000 nM.

Q: And the IC50 [2]?
A: Its IC50 is 1000 to 10000 nM.

— patent US12583818B2 (DAEGU-GYEONGBUK MEDICAL INNOVATION FOUNDATION, priority 2020, dated 2026)
